Experiments:
[1] = Magnesium absorption rate in rats (urine and feces magnesium by ICP-AES, linear regression); details: Examples 5 and 6, gluconate in skim milk or 5 weight percent lactose water, chloride and threonate in water
Experimental: Fifty 3-month old, male Sprague Dawley (SD) rats were divided into five groups of ten rats. Rats of this age and older are considered adult. Each of the rats was placed in a separate metabolic cage equipped with urine- and feces-collecting wells. All of the rats were maintained in a temperature-controlled room (22° C. to 25° C.) with a dark period from 08:00 pm to 08:00 am daily. From day 1 through day 3, each rat was fed daily 15 g of magnesium-free food and de-ionized water. […] The medium was skim milk for Composition 1 and Group 1, milk prepared from powdered milk, by diluting the powdered milk with water to obtain a composition like that of skim milk, for Composition 2 and Group 2, 1% milk cream in water for Composition 3 and Group 3, water comprising 5 weight percent lactose for Composition 4 and Group 4, and water for the Control Composition and Control Group. […]
From day 4 through day 10, urine from each rat was collected daily. The collected urine from each rat was then pooled together and the total volume of the pooled urine from each rat was recorded. The pooled urine from each rat, in an amount of […], was analyzed for magnesium content using an inductively coupled plasma-atomic emission spectrometer (ICP-AES). […] The pooled feces from each rat, in an amount of 0.5 g, were analyzed for magnesium content using an ICP-AES. […]

[2] = compared with magnesium lactate and magnesium citrate; cited from earlier work

For magnesium gluconate, the “magnesium absorption rate at relatively low dosage” value [1] is listed as “suitable” and the “solubility in water or an aqueous medium” value [2] is listed as “comparatively better than that associated with either magnesium lactate or magnesium citrate”.

From US8470352B2, “Magnesium compositions and uses thereof for metabolic disorders” (Magceutics, Inc., priority 2007, dated 2013)
